The values that follow are results of earlier work, collected in patent US20170003257A1, “WETNESS INDICATOR WITH TWO COLORANTS AND TWO STABILIZERS” (The Procter & Gamble Company, priority 2015, published 2017).

The term pKa denotes the pH at which an ionisable group is half protonated.

Like-named read-outs stand apart in the source and are kept apart here.

For Acid Fuchsin, the pKa reads like this: (Table 1 colorants) 13; (colorant pKa as stated in running text) “around 13”.
